Yeast mating assay B: variants of the scFv Ab-14

Source: Li et al. 2023 (doi:10.1038/s41467-023-39022-2), MIT Lincoln Laboratory and A-Alpha Bio; data file from the FLAb repository.

Binding partner: SARS-CoV-2 spike HR2 peptide, sequence PDVDLGDISGINAS.

Each scFv is VH, a (GGGGS)3 linker, VL, as in the parent Ab-14, and differs from it in the CDRs of the light chain only.
VH: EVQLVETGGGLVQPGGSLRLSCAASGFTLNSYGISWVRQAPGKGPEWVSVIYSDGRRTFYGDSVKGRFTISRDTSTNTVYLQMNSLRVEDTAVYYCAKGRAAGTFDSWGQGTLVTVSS
VL: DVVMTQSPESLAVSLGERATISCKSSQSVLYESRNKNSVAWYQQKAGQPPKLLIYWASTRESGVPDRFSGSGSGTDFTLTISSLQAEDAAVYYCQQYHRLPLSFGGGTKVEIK

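This is the validation round: designs drawn from the data on random variants, tested in the same kind of assay. Group labels follow the data file (En: ensemble of fine-tuned language models; GP: Gaussian process model; HC: hill climbing; Gen: genetic algorithm; Gibbs: Gibbs sampling; a sequence that several methods proposed may carry one label only). The scFvs were displayed on barcoded MATa yeast, the peptide on MATalpha yeast. Pairs that bind mate more often; barcode pairs of the diploids are counted by sequencing. Read counts were normalised to the haploid input and turned into Kd by a linear fit to BCL2-family pairs of known affinity, for each replicate. The assay was run in six technical replicates.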

The parent's light chain CDRs are KSSQSVLYESRNKNSVA, WASTRES, QQYHRLPLS; each variant's own CDRs replace them letter for letter. Variants here have more than six changes. The read-out is the apparent dissociation constant on a log10 scale (nM): the lower, the stronger. Replicates are averaged; those with no signal do not enter the mean. An entry "nd" has no value in the source: the pair was not observed among the diploids in that replicate. This suggests poor binding but is not conclusive.

* KLSATSRYESQNKNSIA / EMSTRES / QCYHRLPLS [En_HC] = 1.76, 2.00, 1.88, 2.06, 1.69, 1.81 (mean 1.87)
* MISDLTMYGSRNVNSVA / DLSMRGS / QQYDRLPLS [En_HC] = 1.68, 0.83, 0.68, 0.72, 0.59, 1.01 (mean 0.92)
* NLNVSEDQWPSSKNAIA / QTTCRVL / QQYAHLPLS [En_Gibbs] = 0.27, 0.16, 0.49, 0.14, 0.26, 0.47 (mean 0.30)
* KLQQSVQYESRNQNAVA / EASQRES / QQYHRLPLS [GP_Gibbs] = -0.07, -0.27, -0.37, -0.23, -0.27, -0.25 (mean -0.24)
* HLKTMPGQGPQTYSSIA / HAEIREP / QQYYRLPLM [En_Gibbs] = 0.79, 0.56, 0.66, 0.41, 0.54, 0.57 (mean 0.59)
* MISDLTQYGSRNVHSVA / DLSTRGS / QQYHRLPLS [En_HC] = 0.42, -0.08, 0.10, -0.09, 0.04, 0.10 (mean 0.08)
* KFQGSVMMGDRNKNSVA / KASTRLS / QQYHRLPLS [GP_Gibbs] = 0.29, 0.58, 0.50, 0.47, 0.43, 0.55 (mean 0.47)
* HMSALTLGGMRARNSVA / QMTTREN / QQYDRLPLV [En_Gen] = 0.59, 0.68, 0.81, 0.53, 0.87, 0.74 (mean 0.70)
* SLAESAVMESRNKNSVA / DNSTRES / QHYDRLPLS [En_HC] = nd, nd, nd, nd, nd, nd
* NIYHGVTGTSRKGNSVA / QAETRLD / QQYHRLPLM [En_HC] = 0.94, 0.48, 0.43, 0.65, 0.54, 0.94 (mean 0.66)
* NMKVGLNFEDIQHQAIA / SVDERES / QQYYRLPLT [En_Gibbs] = 1.63, 1.42, 1.10, 1.58, 1.58, 1.45 (mean 1.46)
* KVPQSMLYESRNANNVA / AASDRES / QQYHRLPLS [GP_Gibbs] = -0.18, -0.19, -0.79, -0.55, -0.10, -0.21 (mean -0.33)
* KVEQSNPYESRNANSVA / NASQRLS / QQYHRLPLS [GP_Gibbs] = 1.35, 1.67, 1.60, 2.14, 0.91, 2.31 (mean 1.67)
* KISQMQRVGSTHGNSIA / EEATRLN / QQYHRLPLS [En_Gen] = 0.87, 0.64, 0.04, 0.15, 0.35, 0.36 (mean 0.40)
* TITMFMDNLTQNRNNVA / DTSTLGK / QSYDRLPLS [En_Gen] = nd, 1.74, 1.11, 1.81, nd, 3.02 (mean 1.92)
* MISQVMNTLTRTGNNVA / DLAEREQ / QQYFRLPLS [En_Gen] = 2.10, nd, 1.20, 1.13, nd, nd (mean 1.48)
* STMHLSFGHPYEQANVA / DASNKVS / QQYHRLPLG [En_Gibbs] = 0.81, 0.07, 0.24, 0.04, 0.02, 0.28 (mean 0.24)
* TISQSWFIEQRNKNNVA / EMSTREN / QDYDRLPLS [En_HC] = 0.21, 0.23, -0.22, -0.02, -0.02, 0.33 (mean 0.08)
* TISESAQQESHNKNSVA / DLSVRGS / QQYHRLPLS [En_HC] = -0.10, 0.22, -0.40, 0.10, 0.21, 0.13 (mean 0.02)
* MISQLMNMGQFAINSVA / QATIRNK / QQYDRLPLM [En_Gen] = nd, 0.99, nd, 1.67, 2.44, 3.86 (mean 2.24)
* HCSQSVWQESRNKNSVA / NASQRER / QQYHRLPLS [GP_Gibbs] = 1.98, 1.43, 1.39, 1.78, 1.50, 1.70 (mean 1.63)
* SLAFTQHFGQSGGSAVA / EVQMREQ / QQYFRLPLG [En_Gibbs] = 1.16, 0.98, 1.18, 0.92, 1.37, 1.55 (mean 1.19)
* KSSGSQQGEDRNSNSVA / HASQRES / QQYHRLPLS [GP_Gibbs] = 0.01, 0.24, -0.06, 0.03, -0.02, 0.20 (mean 0.07)
* KVNQLMNIEQMNSKSVA / HTSTREN / QQYHRLPLS [En_HC] = 2.04, 0.57, 0.92, 0.96, 0.66, 1.09 (mean 1.04)
* KITQTMRFEQKISNNIA / EVTLRSK / QQYYRLPLS [En_Gen] = 1.49, 1.36, 2.39, 2.00, 1.71, 1.33 (mean 1.71)
* KLMQEDEYQSRNPNSVA / QASERES / QQYHRLPLS [GP_Gibbs] = -0.60, -0.73, -0.82, -0.91, -0.80, -0.58 (mean -0.74)
* KMQASQGYESRNKNSVA / QASKRES / QQYHRLPLS [GP_Gibbs] = 0.19, 0.04, 0.02, -0.12, -0.01, 0.14 (mean 0.04)
* AIDSHGLGTQEYYNSIA / EEHVKVR / QQYDRLPLS [En_Gibbs] = nd, nd, nd, 0.81, nd, 1.51 (mean 1.16)
* NLKENNVDNQTFYSNIA / HADQREK / QQYYRLPLQ [En_Gibbs] = 1.46, 1.41, 1.47, 1.62, 1.73, 1.51 (mean 1.53)
* TIGQSTMVESYNKNSVA / QASTREE / QDYHRLPLS [En_HC] = 1.23, 1.23, 1.53, 1.60, 1.17, 1.61 (mean 1.40)
* KVDQDDLYESRNKNSVA / QGSTRES / QQYHRLPLH [GP_Gibbs] = 0.33, 0.19, 0.41, 0.36, 0.17, 0.31 (mean 0.29)
* KLSQVTNSEHKNKNSIA / EMVTREK / QQYDRLPLS [En_HC] = 0.71, 0.77, 0.69, 0.31, 0.53, 0.53 (mean 0.59)
* KVWMSQLYESRNKNAVA / NASLRMS / QQYHRLPLS [GP_Gibbs] = 0.52, 0.43, 0.19, 0.29, 0.35, 0.19 (mean 0.33)
* KLMQSALLESRNVNNVA / QASQRML / QDYHRLPLS [GP_Gibbs] = 0.71, 0.47, 0.53, 0.47, 0.62, 0.57 (mean 0.56)
* KVHAYTQGVEQDMQNVA / EGSYASR / QQYFRLPLS [En_Gibbs] = 0.92, 1.15, 1.28, 0.68, 0.98, 0.72 (mean 0.96)
* QLTENDRGHQAGGGSIA / DATETME / QQYMHLPLS [En_Gibbs] = 0.49, 0.13, -0.05, 0.33, 0.02, 0.47 (mean 0.23)
* ILSQSVLLGMHTKNNVA / QATMRFN / QQYHRLPFM [En_HC] = 0.97, 0.24, 0.09, 0.20, 0.01, 0.24 (mean 0.29)
* KLGGLMTWEEKARNSVA / QQETRAE / QQYHHLPLS [En_HC] = 0.99, 1.84, 0.37, 0.79, 0.41, 1.53 (mean 0.99)
* TISQMWNMGQFAINSVA / QAELRND / QQYDRLPLT [En_Gen] = 2.15, 2.23, 2.35, 1.84, 1.78, 2.00 (mean 2.06)
* HISMSMNFLSRNKNSIA / EESTRED / QQYHRLPLS [En_HC] = -0.37, -0.54, 0.07, -0.52, -0.64, -0.15 (mean -0.36)
* SLTSHEEESEGAHASVA / EASMLES / QQYHRLPLM [En_Gibbs] = nd, nd, nd, nd, nd, nd
* KLSQEMEYESRNKNSVA / HASERES / QDYHRLPLS [GP_Gibbs] = -0.06, -0.28, -0.06, -0.46, -0.21, -0.12 (mean -0.20)
* KIGYNMGTESFRKDNIA / DVRDREE / QQYFRLPLS [En_Gen] = 0.27, 0.43, 0.44, 0.41, 0.52, 0.63 (mean 0.45)
* KLSISYLFESQNKASIA / ENSTRES / QHYHRLPLS [En_HC] = 1.57, 1.39, 1.61, 1.77, 1.41, 1.75 (mean 1.58)

From the list, the first 2 with no signal in any replicate:

| CDR-L1 | CDR-L2 | CDR-L3 | group | log10 Kd, replicates | mean log10 Kd (nM) |
|---|---|---|---|---|---|
| SLAESAVMESRNKNSVA | DNSTRES | QHYDRLPLS | En_HC | nd, nd, nd, nd, nd, nd | nd |
| SLTSHEEESEGAHASVA | EASMLES | QQYHRLPLM | En_Gibbs | nd, nd, nd, nd, nd, nd | nd |

A sequence measured in both rounds can read differently, since the two assays cover different ranges. As a blank, each scFv also met three strains without target: over all light chain designs, 4% of these pairings were detected, typically at 2.64 and seldom below 1.59. Of ten entries with the parent sequence, four were seen in most replicates (averages 0.34 to 2.37), three in one and three in none, so single entries are noisy. The authors averaged sequences with at least three values out of six and counted those with two or fewer as poor binders.